# Assay results published in IntAct's records for PubMed 21481793.
# B1: Merlin (Homo sapiens), P35240 (parent)
# chain: MAGAIASRMSFSSLKRKQPKTFTVRIVTMDAEMEFNCEMKWKGKDLFDLVCRTLGLRETWFFGLQYTIKDTVAWLKMDKKVLDHDVSKEEPVTFHFLAKFYPENAEEELVQEITQHLFFLQVKKQILDEKIYCPPEASVLLASYAVQAKYGDYDPSVHKRGFLAQEELLPKRVINLYQMTPEMWEERITAWYAEHRGRARDEAEMEYLKIAQDLEMYGVNYFAIRNKKGTELLLGVDALGLHIYDPENRLTPKISFPWNEIRNISYSDKEFTIKPLDKKIDVFKFNSSKLRVNKLILQLCIGNHDLFMRRRKADSLEVQQMKAQAREEKARKQMERQRLAREKQMREEAERTRDELERRLLQMKEEATMANEALMRSEETADLLAEKAQITEEEAKLLAQKAAEAEQEMQRIKATAIRTEEEKRLMEQKVLEAEVLALKMAEESERRAKEADQLKQDLQEAREAERRAKQKLLEIATKPTYPPMNPIPAPLPPDIPSFNLIGDSLSFDFKDTDMKRLSMEIEKEKVEYMEKSKHLQEQLNELKTEIEALKLKERETALDILHNENSDRGGSSKHNTIKKLTLQSAKSRVAFFEEL
# Variants of: B1
# Conditions: with amot_human AMOT
row,effect of a mutation on the interaction,Variant
1,decreasing interaction,MAGAIASRMSFSSLKRKQPKTFTVRIVTMDAEMEFNCEMKWKGKDLFDLVCRTLGLRETWFFGLQYTIKDTVAWLKMDKKVLDHDVSKEEPVTFHFLAKFYPENAEEELVQEITQHLFFLQVKKQILDEKIYCPPEASVLLASYAVQAKYGDYDPSVHKRGFLAQEELLPKRVINLYQMTPEMWEERITAWYAEHRGRARDEAEMEYLKIAQDLEMYGVNYFAIRNKKGTELLLGVDALGLHIYDPENRLTPKISFPWNEIRNISYSDKEFTIKPLDKKIDVFKFNSSKLRVNKLILQLCIGNHDLFMRRRKADSLEVQQMKAQAREEKARKQMERQRLAREKQMSEEAERTRDELERRLLQMKEEATMANEALMRSEETADLLAEKAQITEEEAKLLAQKAAEAEQEMQRIKATAIRTEEEKRLMEQKVLEAEVLALKMAEESERRAKEADQLKQDLQEAREAERRAKQKLLEIATKPTYPPMNPIPAPLPPDIPSFNLIGDSLSFDFKDTDMKRLSMEIEKEKVEYMEKSKHLQEQLNELKTEIEALKLKERETALDILHNENSDRGGSSKHNTIKKLTLQSAKSRVAFFEEL [R346S]
2,decreasing interaction,MAGAIASRMSFSSLKRKQPKTFTVRIVTMDAEMEFNCEMKWKGKDLFDLVCRTLGLRETWFFGLQYTIKDTVAWLKMDKKVLDHDVSKEEPVTFHFLAKFYPENAEEELVQEITQHLFFLQVKKQILDEKIYCPPEASVLLASYAVQAKYGDYDPSVHKRGFLAQEELLPKRVINLYQMTPEMWEERITAWYAEHRGRARDEAEMEYLKIAQDLEMYGVNYFAIRNKKGTELLLGVDALGLHIYDPENRLTPKISFPWNEIRNISYSDKEFTIKPLDKKIDVFKFNSSKLRVNKLILQLCIGNHDLFMRRRKADSLEVQQMKAQAREEKARKQMERQRLAREKQMREEAERTRDELERRLLQMKEEATMANEALMRSEETADLLAEKAQITEEEAKLLAQKAAEAEQEMQRIKATAIRTEEEKRLMEQKVLEAEVLALKMAEESERRAKEADQLKQDLQEARKAERRAKQKLLEIATKPTYPPMNPIPAPLPPDIPSFNLIGDSLSFDFKDTDMKRLSMEIEKEKVEYMEKSKHLQEQLNELKTEIEALKLKERETALDILHNENSDRGGSSKHNTIKKLTLQSAKSRVAFFEEL [E463K]
